Target: T1, recombinant human RAGE/Fc chimera (R&D Systems cat. No. 1145-RG) (human, UniProt Q15109 23-344)
T1 construct: Disulfide-linked homodimer expressed in NS0 cells, glycosylated and amine-coupled to a CM5 chip; also called rhRAGE-Fc; immobilized RAGE; not shown: peptide linker between RAGE and Fc; Fc region of human IgG1
Experiment: SPR (Biacore), 200 nM protein over amine-coupled RAGE/Fc, 1 mM CaCl2 and 10 µM ZnCl2
Experimental: Binding analysis was performed using the “surface plasmon resonance” (SPR) technology with a Biacore 3000™ system. This technology allows analysis of an interaction between proteins and small molecules in a real-time and label-free manner. A protein or low-molecular weight compound is injected over a surface (a CM5 sensor chip) with a covalently coupled ligand and the signal produced, expressed as resonance units (RU), is directly proportional to the number and mass of the molecule interacting with the ligand on the surface. Immobilization, regeneration scouting, surface performance tests and binding studies were conducted basically according to the instructions by the manufacturer. Kinetic evaluation of binding data was carried using the BIAevaluation Software Version 3.2 (Biacore AB). Optimization of conditions for immobilization and binding analysis is carried out for each interaction to be studied. […]
Recombinant human RAGE was obtained from R&D Systems (cat. No. 1145-RG) as a fusion protein of the extracellular domain of RAGE, comprising a.a. […] The chimeric protein was expressed in the mouse myleoma cell line NSO as a disulfide-linked homo-dimeric protein with a calculated molecular mass of 61 kDa. […]

Amino acid sequences for entries named in this document (tags omitted). Residues count along the entry.
UniProt Q15109, 23-344, stated change not applied: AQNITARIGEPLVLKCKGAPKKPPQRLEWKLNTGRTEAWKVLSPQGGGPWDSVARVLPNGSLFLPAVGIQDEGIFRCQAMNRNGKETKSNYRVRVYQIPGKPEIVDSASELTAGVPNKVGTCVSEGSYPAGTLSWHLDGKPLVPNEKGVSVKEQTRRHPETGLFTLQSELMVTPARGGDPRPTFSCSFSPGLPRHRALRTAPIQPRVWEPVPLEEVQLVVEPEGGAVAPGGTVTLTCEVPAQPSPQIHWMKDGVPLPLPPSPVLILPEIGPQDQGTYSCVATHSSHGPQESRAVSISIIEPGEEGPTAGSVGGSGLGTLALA

binding result: no binding (tested: 200 nM)
B1: hS100AB (other)
alpha: GSELETAMETLINVFHAHSGKEGDKYKLSKKELKELLQTELSGFLDAQKDVDAVDKVMKELDENGDGEVDFQEYVVLVAALTVACNNFFWENS
beta: SELEKAMVALIDVFHQYSGREGDKHKLKKSELKELINNELSHFLEEIKEQEVVDKVMETLDNDGDGECDFQEFMAFVAMVTTACHEFFEHE

Source: patent publication US20100166775A1 (ACTIVE BIOTECH, published 2010)
